Changes are numbered by the printed parent chain.
Columns and labels:
[1] = target: T1, CHC^ankle (clathrin heavy chain aa 358–574) (Homo sapiens, UniProt Q00610); test: Fluorescence polarisation direct binding assay, CHC ankle WT; details: direct binding FP, FAM labelled peptides; CHC WT (385–574); mean of three experiments ± SD; read-out: KD, stapled and control peptides, CHC WT
T1 construct: we used the minimal ankle region of CHC (CHC^ankle, aa 358–574); GST (TEV-cleavable); made in house
T1 sequence (Q00610 358-574): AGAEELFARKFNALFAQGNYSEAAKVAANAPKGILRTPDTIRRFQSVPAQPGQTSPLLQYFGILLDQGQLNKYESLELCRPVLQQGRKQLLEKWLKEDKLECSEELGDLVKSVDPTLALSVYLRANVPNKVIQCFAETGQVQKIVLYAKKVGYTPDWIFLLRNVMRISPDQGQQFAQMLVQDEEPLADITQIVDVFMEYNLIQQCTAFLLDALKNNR
Procedure: (§1) Binding affinity of CHC and TACC3 peptides was calculated based on fluorescence polarization assays performed as reported previously, using linear and stapled FAM-TACC3 peptides corresponding to aa 549–570 of human TACC3 protein. Linear peptides were purchased from PPR (Fareham, UK); Alta Bioscience (Redditch, UK); Biomatik Corporation (Ontario, Canada). Stock solutions of peptides were 10 mM in DMSO. Binding assays were performed in triplicate in the binding buffer 20 mM HEPES pH 7.5, 150 mM NaCl, 5 mM DTT, 0.05% Tween-20. Data analysis was performed using a one-site specific binding model in Prism (GraphPad software, v10.1.0).

K507A-CHC^ankle = target: T2, K507A-CHC^ankle (Homo sapiens, UniProt Q00610, K507A); test: Fluorescence polarisation direct binding assay, K507A-CHC ankle; details: for Kd: direct binding FP, FAM labelled peptides, CHC with K507A substitution, mean of three experiments ± SD, read-out: KD, stapled and control peptides, CHC K507A
T2 construct: we used the minimal ankle region of CHC (CHC^ankle, aa 358–574); GST (TEV-cleavable); made in house
T2 sequence (Q00610 358-574 K507A): T1 sequence (Q00610 358-574) with K150A
Excerpt: CHC constructs for binding studies were produced during previous work by cloning the respective CHC coding sequence of Q00610 (CLH1_HUMAN) aa 1–574 and 358–574, respectively) into a modified pGEX vector containing a TEV-cleavable GST tag[26]. Point mutations K506A and K507A were introduced by site-directed mutagenesis. GB1-TACC3 is the small protein GB1[47] fused to a short, disordered peptide sequence from human TACC3 (Q9Y6A5, aa 545–573). This hybrid sequence was cloned into a pETM6T1 vector which contains a TEV protease-cleavable N-terminal His-NusA tag.
as §1

[2] = target: T3, biotinylated Avi-tagged ankle region of clathrin (aa 358–574) (Homo sapiens, UniProt Q00610); test: SPR binding kinetics; details: Biacore 1K+, CHC aa 358–574 on SA chip; 60 s injection; average ± SD of duplicates; read-out: ka (SPR)
T3 construct: The biotinylated Avi-tagged ankle region of clathrin (aa 358–574) was immobilised; made in house
T3 sequence (Q00610 358-574 limits assumed): T1 sequence (Q00610 358-574)
Procedure: The SPR assays were performed using a Biacore 1K+ instrument (Cytiva Life Sciences). The biotinylated Avi-tagged ankle region of clathrin (aa 358–574) was immobilised on the surface of a Streptavidin SA chip (Cytiva Life Sciences) to the density of 150 RU. The increasing concentrations of peptide analytes were diluted in the running buffer (20 mM HEPES pH 7.5, 150 mM NaCl, 5 mM DTT, 0.05% Tween-20) and injected at a flow rate of 30 μL/min). […] Each concentration was injected at 30 μL/min for 60 s. […] The Biacore evaluation software was used to calculate equilibrium KD values as well as ka and kd constants using 1:1 steady-state affinity model implemented into the BIAevaluation 3.0 software.

HeLa cells = test: Cellular peptide uptake by flow cytometry, HeLa; assay type: in vitro ADME; details: live HeLa, FAM-peptides 1, 2.5, 5, 10 μM for 60 min or 5 μM for 15–360 min, complete medium 10% FBS, 0.2% DMSO, washed and trypsinised, % positive cells and MFI at 525 nm, at least three biological replicates
Procedure: For peptide uptake measurements the medium was aspirated and cells were treated with fresh pre-warmed complete growth medium supplemented for 60 min with FAM-peptides at concentrations of 1, 2.5, 5 and 10 μM; the final concentration of DMSO was 0.2%. To perform the time course of peptide uptake, cells were treated with fresh growth medium supplemented with 5 μM peptide for 15–360 min. After the incubation, cells were washed three times in ice cold phosphate-buffered saline (PBS) and trypsinised for 5 min to remove surface bound peptides and dissociate cells from the surface. The dissociation reaction was stopped using PBS containing 5% FBS. Cells were harvested by centrifugation (5 min, 150 g) and washed an additional three times in PBS. Cells were then resuspended in 300 μL PBS and subjected to a Cytoflex S cytometer (Beckman Coulter) measurement. Using forward and side scattered light, a gate for intact, non-aggregated cells was defined. The fluorescence at 525 nm of 10,000 events was collected within this cell gate and data were analysed using Cytoflex software (version 10.1). Results are shown as geometric means of fluorescence collected at 525 nm.

Structure (SMILES) | Kd [1] [µM] | Kd (K507A-CHC^ankle) [µM] | kon [2] [M⁻¹ s⁻¹] | cellular uptake / cell penetration (HeLa cells) | fold enhancement of affinity for K507A-CHC ankle over WT CHC ankle (K507A-CHC^ankle; FP, K507A-CHC ankle versus WT CHC ankle) [fold]
CC(C)C[C@H](NC(=O)[C@H](C)NC(=O)[C@H](CCC(N)=O)NC(=O)[C@H](CCCCN)NC(=O)[C@H](CCCNC(=N)N)NC(=O)[C@H](CC(C)C)NC(=O)[C@H](C)NC(=O)[C@H](CO)NC(=O)[C@H](CCC(=O)O)NC(=O)[C@H](CCCCN)NC(=O)[C@H](Cc1ccccc1)NC(=O)c1ccc2c(c1)C1(OC2=O)c2ccc(O)cc2Oc2cc(O)ccc21)C(=O)N[C@@H](Cc1ccc(O)cc1)C(=O)N[C@@H](CC(C)C)C(=O)N[C@@H](C)C(=O)N[C@@H](Cc1ccccc1)C(=O)N[C@@H](CC(=O)O)C(=O)N1CCC[C@H]1C(=O)N[C@@H](CC(C)C)C(=O)N[C@@H](CC(C)C)C(=O)N[C@@H](CCCNC(=N)N)C(=O)N[C@@H](CC(=O)O)C(=O)N[C@@H](CO)C(N)=O [P1] | 105 ± 5 | 37 ± 7 | – | – | –
CC(C)C[C@H](NC(=O)[C@H](C)NC(=O)[C@H](CO)NC(=O)[C@H](CCC(=O)O)NC(=O)[C@H](CCCCN)NC(=O)[C@H](Cc1ccccc1)NC(=O)c1ccc2c(c1)C1(OC2=O)c2ccc(O)cc2Oc2cc(O)ccc21)C(=O)N[C@@H](CCCNC(=N)N)C(=O)N[C@@H](CCCCN)C(=O)N[C@@H](CCC(N)=O)C(=O)N[C@@H](COP(=O)(O)O)C(=O)N[C@@H](CC(C)C)C(=O)N[C@@H](Cc1ccc(O)cc1)C(=O)N[C@@H](CC(C)C)C(=O)N[C@@H](CCCCN)C(=O)N[C@@H](Cc1ccccc1)C(=O)N[C@@H](CC(=O)O)C(=O)N1CCC[C@H]1C(=O)N[C@@H](CC(C)C)C(=O)N[C@@H](CC(C)C)C(=O)N[C@@H](CCCNC(=N)N)C(=O)N[C@@H](CC(=O)O)C(=O)N[C@@H](CO)C(N)=O [WT pTACC3, reference compound] | – | – | 85000 | – | –
CC(C)C[C@H](NC(=O)[C@H](C)NC(=O)[C@H](CO)NC(=O)[C@H](CCC(=O)O)NC(=O)[C@H](CCCCN)NC(=O)[C@H](Cc1ccccc1)NC(=O)c1ccc2c(c1)C1(OC2=O)c2ccc(O)cc2Oc2cc(O)ccc21)C(=O)N[C@@H](CCCNC(=N)N)C(=O)N[C@@H](CCCCN)C(=O)N[C@@H](CCC(N)=O)C(=O)N[C@@H](CO)C(=O)N[C@@H](CC(C)C)C(=O)N[C@@H](Cc1ccc(O)cc1)C(=O)N[C@@H](CC(C)C)C(=O)N[C@@H](CCCCN)C(=O)N[C@@H](Cc1ccccc1)C(=O)N[C@@H](CC(=O)O)C(=O)N1CCC[C@H]1C(=O)N[C@@H](CC(C)C)C(=O)N[C@@H](CC(C)C)C(=O)N[C@@H](CCCNC(=N)N)C(=O)N[C@@H](CC(=O)O)C(=O)N[C@@H](CO)C(N)=O [TACC3 CID, reference compound] | – | – | – | low and slow cellular uptake | ~10
CC(C)C[C@H](NC(=O)[C@H](C)NC(=O)[C@H](CCC(N)=O)NC(=O)[C@H](CCCCN)NC(=O)[C@H](CCCNC(=N)N)NC(=O)[C@H](C)NC(=O)[C@H](C)NC(=O)[C@H](CO)NC(=O)[C@H](CCC(=O)O)NC(=O)[C@H](CCCCN)NC(=O)[C@H](Cc1ccccc1)NC(=O)c1ccc2c(c1)C1(OC2=O)c2ccc(O)cc2Oc2cc(O)ccc21)C(=O)N[C@@H](Cc1ccc(O)cc1)C(=O)N[C@@H](CC(C)C)C(=O)N[C@@H](CCCCN)C(=O)N[C@@H](Cc1ccccc1)C(=O)N[C@@H](CC(=O)O)C(=O)N1CCC[C@H]1C(=O)N[C@@H](CC(C)C)C(=O)N[C@@H](CC(C)C)C(=O)N[C@@H](CCCNC(=N)N)C(=O)N[C@@H](CC(=O)O)C(=O)N[C@@H](CO)C(N)=O [P2] | 160 ± 3 | 19 ± 5 | – | – | –

Source: PMC12204359, “Mechanistic Design of Cell-Penetrating Disruptors for a Phospho-Dependent Interaction” (Research Square, 2025)
